{
  "sequences": {"note": "Protein sequences, listed by entry. Tags and fused reporters are not part of them. Residues count along the entry.", "UniProt P22607, 397-806 limits assumed": "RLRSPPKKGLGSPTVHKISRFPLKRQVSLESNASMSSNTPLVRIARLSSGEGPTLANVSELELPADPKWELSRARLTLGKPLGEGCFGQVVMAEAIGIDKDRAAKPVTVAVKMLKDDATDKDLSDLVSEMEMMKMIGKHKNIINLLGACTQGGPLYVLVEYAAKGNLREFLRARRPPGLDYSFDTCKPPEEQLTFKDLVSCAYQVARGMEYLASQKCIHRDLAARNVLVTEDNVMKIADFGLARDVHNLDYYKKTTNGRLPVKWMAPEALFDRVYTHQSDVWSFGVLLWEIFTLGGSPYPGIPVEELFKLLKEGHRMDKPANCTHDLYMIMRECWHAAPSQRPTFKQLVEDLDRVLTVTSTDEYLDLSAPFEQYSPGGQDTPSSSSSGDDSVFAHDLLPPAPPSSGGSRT"},
  "source": "patent US9598416B2",
  "about": "“Substituted benzothienyl-pyrrolotriazines and uses thereof in the treatment cancer” (Bayer Intellectual Property GmbH, priority 2011, dated 2017)",
  "molecular_target": "human FGFR-3 (Homo sapiens (Human), UniProt P22607)",
  "assay": "FGFR-3 kinase assay (TR-FRET)",
  "assay_type": "biochemical",
  "conditions": "read-out: FGFR-3 IC50",
  "data": [
    {"molecule": "CCN1CCCC1CNCc1cn2ncnc(N)c2c1-c1cc2cc(C)cc(OC)c2s1", "note": "(stereo not shown)", "values": [
      {"measurement": "IC50", "result": 5, "unit": "nM"}
    ]}
  ]
}
